{"source": "patent US20080305092A1", "about": "“Methods of treating autoimmune disease via CTLA-4IG” (THE REGENTS OF THE UNIVERSITY OF MICHIGAN, priority 1993, published 2008)", "test_system": "Daudi", "experiment": "Cytotoxicity of activated cells against Daudi", "format": "cell-based, human", "details": "anti-CD3 triggered T cells", "procedure": "Cytotoxicity mediated by anti-CD3 and anti-CD28 triggered PBL. The cytotoxicity of anti-CD3 activated PBL after 7 days of culture in the presence of low doses of IL-2 or anti-CD28 was tested. In this set of experiments, the ability of CD28 to induce increases in lymphokine production to substitute for previously reported immune augmented effects of in vitro T cell treatment with IL-2 has been examined. One lytic unit is equivalent to 20% lysis of 5×10^3 target cells per 1×10^6 effector cells as discussed in Press, H. F. et al., J. Clin. Immunol. 1:51-83 (1981). Various targets, including Daudi and K562, were tested.\nIn 5 different subjects, PBL were compared with T cells (E^+) in their ability to kill Daudi, K562, and BSB cells 8 days after being activated with OKT3. These experiments were performed in X-Vivo 10 supplemented with 5% human serum (HS). The mean cytotoxicity in 5 normal subjects using PBL directed at Daudi, K562, and BSB were 15.0, 7.4, and 9.2 LU, respectively. In T cells from the same 5 subjects, the mean cytotoxicity directed at Daudi, K562, and BSB were 14.3, 7.7, and 9.3 LU, respectively.\n[…] In order to test for optimal cytotoxicity, T cells were cultured with anti-CD3 and IL-2 for 31 days and tested at weekly intervals for cytotoxicity against Daudi and K562. […] Cytotoxicity was a strong function of culture duration however, with <0.1, 24, 3.5, 0.5, 1.0 LU at 0, 8, 15, 22, and 29 days of culture. Similar results were found when Daudi was the target, with <0.01, 23, 5, 2, and 5 LU at 0, 8, 15, 22, and 29 days of culture.\nCytotoxicity induced by soluble or immobilized OKT3. In 7 experiments, cytotoxicity mediated by T cells after activation was compared with soluble or immobilized OKT3. Both methods induced cytotoxicity directed at Daudi and K562. Soluble OKT3 activated T cells mediated a mean cytotoxicity of 27 LU (SD-18) directed at Daudi and a mean cytotoxicity of 21 LU (SD-16) directed at K562. Immobilized OKT3 activated T cells mediated a mean cytotoxicity of 22 LU (SD-16) directed at Daudi and a mean cytotoxicity of 12 LU (SD-8) directed at K562. These experiments were performed with E^+ cells in RPMI 1640 supplemented with 10% fetal bovine serum (FBS). Cytotoxicity was assessed 7 to 8 days after triggering with soluble (10 ng/ml) or immobilized (2 μg/ml) OKT3.\nEffects of IL-2 concentrations. The dose of IL-2 was titrated after establishing the optimal time of OKT3 activation. […] Proliferation, as measured by tritiated thymidine incorporation after 3 days of culture, remained constant as IL-2 was titrated in this range. In contrast, cytotoxicity varied with the dose of IL-2, and was maximal at lower doses of IL-2 (lytic units with Daudi targets were 28, 9, 8.5, 9 and 4.8 LU after culture in 30, 150, 300, 600 and 6000 IU/ml of rIL-2).\nBone marrow mononuclear cells (BMMNC) as a source of CTC after anti-CD3 and anti-CD28 treatment. To test whether BMMNC might serve as a source of T cells for therapy in patients with malignancies, BMMNC were cultured in X-Vivo 10 medium after OKT3 and IL-2 or anti-CD28 stimulation. Although the BMMNC population initially contained only 25% CD3^+ cells, proliferative and cytotoxic responses were excellent after 2 weeks of culture. T cells expanded more than 40-fold after CD3 and IL-2 stimulation and cytotoxicity was between 5 and 12 LU at 8 to 15 days of culture when tested against Daudi and K562. […]"}
{"substance": "rIL-2: recombinant interleukin-2", "values": [{"measurement": "lytic units with Daudi targets", "setting": "30 IU/ml of rIL-2", "result": 28, "unit": "LU"}, {"measurement": "lytic units with Daudi targets", "setting": "150 IU/ml of rIL-2", "result": 9, "unit": "LU"}, {"measurement": "lytic units with Daudi targets", "setting": "300 IU/ml of rIL-2", "result": 8.5, "unit": "LU"}, {"measurement": "lytic units with Daudi targets", "setting": "600 IU/ml of rIL-2", "result": 9, "unit": "LU"}, {"measurement": "lytic units with Daudi targets", "setting": "6000 IU/ml of rIL-2", "result": 4.8, "unit": "LU"}]}
